From ChEMBL document CHEMBL1156775 (J Med Chem, 2010)

Assays:
Homo sapiens [1] = species: Homo sapiens; assay: Selectivity ratio of Ki for human delta opioid receptor to Ki for human mu opioid receptor
Homo sapiens [2] = species: Homo sapiens; assay: Selectivity ratio of Ki for human kappa opioid receptor to Ki for human mu opioid receptor

For `Oc1ccc2c(c1)[C@@]13CCCC[C@H]1[C@@H](C2)N(CC1CCC1)CC3`, the Ratio Ki (Homo sapiens [1]) was 25 and the Ratio Ki (Homo sapiens [2]) was 0.3.
